The text below walks through data of patent US9157109B2, “Biosensors utilizing ink jet-printed biomolecule compatible sol gel inks and uses thereof” (McMaster University, priority 2009, dated 2015).

Protein sequences, listed by entry. Tags and fused reporters are not part of them. Lines headed by an entry give the natural chain unless they say otherwise; changes in a name come on top.
UniProt P05804: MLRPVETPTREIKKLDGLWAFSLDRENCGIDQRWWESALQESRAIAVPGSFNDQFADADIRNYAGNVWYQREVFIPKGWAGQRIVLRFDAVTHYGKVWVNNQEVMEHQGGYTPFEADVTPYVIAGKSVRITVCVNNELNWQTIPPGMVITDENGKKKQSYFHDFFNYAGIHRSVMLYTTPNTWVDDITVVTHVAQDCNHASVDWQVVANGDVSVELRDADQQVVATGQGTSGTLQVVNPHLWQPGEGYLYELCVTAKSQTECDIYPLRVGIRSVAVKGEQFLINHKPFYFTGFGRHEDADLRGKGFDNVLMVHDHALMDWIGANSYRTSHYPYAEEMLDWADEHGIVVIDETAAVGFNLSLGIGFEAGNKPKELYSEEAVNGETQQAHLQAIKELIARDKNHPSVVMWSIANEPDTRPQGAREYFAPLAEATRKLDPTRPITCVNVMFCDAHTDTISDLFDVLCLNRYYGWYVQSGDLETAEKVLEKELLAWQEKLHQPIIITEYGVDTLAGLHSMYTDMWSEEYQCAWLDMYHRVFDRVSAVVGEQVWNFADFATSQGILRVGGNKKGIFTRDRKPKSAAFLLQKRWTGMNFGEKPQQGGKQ

Assay [1] deals with T1, β-Glucuronidase (GUS) (Escherichia coli, UniProt P05804). Here is the method:
(§1) For this, all of these substrates were dissolved separately with sodium phosphate buffer (75 mM, pH 8). […] 20 μL of GUS (final concentration of 1 U/mL) was then added into each well and incubated for 30 min to allow color development. The absorbance at 610, 400, and 380 nm was then measured using a TECAN M1000 plate reader. A digital camera was also used to take a photograph of the plate. […] (0-10 mM), and FeCl3 (2 mM) were entrapped on paper as described previous section (FIG. 13b). The sensor was then immersed into GUS solution (1 U/mL) and removed as soon as the Gus solution has reached the sensing region through FeCl3 zone followed by a certain incubation time (5, 30, and 60 min) at room temperature.

Assay [2] addresses T1, β-Glucuronidase (GUS). It counts as biochemical, E. coli. Also noted: purchased Sigma-Aldrich type VII-A (catalogue number not given). Here is the method: as §1
Experiments were conducted firstly in 96-well plate, in which GUS (final concentration of 1 U/mL) was entrapped in silica gel. […] (4 mM) and oxidizing agents (1 mM each) were then added to each well (designated for the individual oxidizing agent), and incubated for 30 min. The concentration gradient (0-30 mM) of FeCl3 was also observed in 96-well plate. The absorbance at 610 was measured using a TECAN M1000 plate reader for each experiment. A digital camera was also used to take a photograph of the plate. […] (3 mM) were entrapped on paper using biocompatible silica material in order to make the sensor strips, as described in the previous section. […]

For the substance “5-bromo-4-chloro-3-indolyl β-D-glucuronide sodium salt [X-Gluc]”, the Km in assay [1] is around 700 µM. The “visual color formation via GUS catalyzed hydrolysis” value in assay [2] is reported as “distinct deep blue color”.
